The source of these data is patent publication US20140093459A1, “NOVEL COMPOUND” (DSM IP ASSETS B.V., priority 2009, published 2014).

Data set [1] is described as follows: Solubility of BMDBM or BEMT in C12-15 alkyl benzoate (saturation, HPLC of supernatant). It is filed as physicochemical.
Data set [2] can be described thus: Reduction of solvent necessary to dissolve solid UV-filter. In kind it is physicochemical.
The conditions of data set [3]: e.g. C12-15 alkyl benzoate, diisopropyl sebacate or dibutyl adipate; typical value; cited from earlier work.
Data set [4] in a line: Comparative: solubility of BMDBM in 1:1 (w/w) mixture of C12-15 alkyl benzoate and a polymeric or solid UV-filter (HPLC after 1 month at RT). Particulars: solvent alone, baseline repeated under each UV-filter column.

In the case of butyl methoxydibenzoylmethane [BMDBM], the “Solubility in C12-15 alkyl benzoate” value in data set [1] (C12-15 alkyl benzoate alone (summary table)) was 14 wt.-%. The “solubility in the cosmetic solvent C12-15 alkyl benzoate” value in data set [1] (C12-15 alkyl benzoate alone, saturation, HPLC of supernatant) is listed as 14 wt.-%. Moreover, in data set [2] (C12-15 alkyl benzoate alone), the “amount of C12-15 alkyl benzoate necessary to solubilize 0.5 g BMDBM” value amounted to 3.0 g. Moreover, the “amount of diisopropyl sebacate necessary to solubilize 0.5 g BMDBM” value in data set [2] (diisopropyl sebacate alone) worked out at 2.0 g. For the same substance, the “solubility in the conventional cosmetic oils” value in data set [3] is given as “less than 20%”. The “Solubility of BMDBM in C12-15 alkyl benzoate” value in data set [4] amounted to 14 wt.-%.
